These results are taken from BindingDB's records for 16201766 (Probiodrug, 2005).

The chains behind the UniProt entries cited, without tags or fusion partners.
UniProt Q9CYK2, whole entry, looked up: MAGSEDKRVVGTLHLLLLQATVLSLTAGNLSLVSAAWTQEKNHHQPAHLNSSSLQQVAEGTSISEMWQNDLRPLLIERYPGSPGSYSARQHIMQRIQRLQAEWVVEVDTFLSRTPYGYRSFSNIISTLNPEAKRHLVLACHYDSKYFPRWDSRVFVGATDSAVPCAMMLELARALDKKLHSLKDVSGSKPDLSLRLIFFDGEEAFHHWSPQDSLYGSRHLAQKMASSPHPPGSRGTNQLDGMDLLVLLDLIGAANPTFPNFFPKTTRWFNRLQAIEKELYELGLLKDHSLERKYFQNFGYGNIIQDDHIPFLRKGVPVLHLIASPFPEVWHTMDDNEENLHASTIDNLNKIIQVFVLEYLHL

This assay has as its target Glutaminyl-peptide cyclotransferase (Mus musculus, UniProt Q9CYK2). Particulars: pH 8.

Molecules are shown by their SMILES.

As for `CN(C)CCS`, the Ki (usually the equilibrium dissociation constant of an inhibitor or competing ligand from its target) worked out at 29 µM.
In turn, `CCN(CC)CCS` displayed a Ki of 10.9 µM. This Ki is about 2.7-fold lower than that of the compound before.
